From article PMC5734940 (Toxicology and applied pharmacology, 2017)

Test system: Human iPSC-derived cardiomyocytes (iCell cardiomyocytes)

Phenol, isopropylated, phosphate (3:1)
Effect on mitochondria / mitochondria potential (in words): selectively decreased mitochondria potential
